Consider three compounds from patent US20110284394A1, “Portable Electrochemical Multiphase Microreactor for Sensing Trace Chemical Vapors” (published 2011).

The chains behind the UniProt entries cited, without tags or fusion partners. Residues count along the entry.
UniProt O42275, 24-633 limits assumed: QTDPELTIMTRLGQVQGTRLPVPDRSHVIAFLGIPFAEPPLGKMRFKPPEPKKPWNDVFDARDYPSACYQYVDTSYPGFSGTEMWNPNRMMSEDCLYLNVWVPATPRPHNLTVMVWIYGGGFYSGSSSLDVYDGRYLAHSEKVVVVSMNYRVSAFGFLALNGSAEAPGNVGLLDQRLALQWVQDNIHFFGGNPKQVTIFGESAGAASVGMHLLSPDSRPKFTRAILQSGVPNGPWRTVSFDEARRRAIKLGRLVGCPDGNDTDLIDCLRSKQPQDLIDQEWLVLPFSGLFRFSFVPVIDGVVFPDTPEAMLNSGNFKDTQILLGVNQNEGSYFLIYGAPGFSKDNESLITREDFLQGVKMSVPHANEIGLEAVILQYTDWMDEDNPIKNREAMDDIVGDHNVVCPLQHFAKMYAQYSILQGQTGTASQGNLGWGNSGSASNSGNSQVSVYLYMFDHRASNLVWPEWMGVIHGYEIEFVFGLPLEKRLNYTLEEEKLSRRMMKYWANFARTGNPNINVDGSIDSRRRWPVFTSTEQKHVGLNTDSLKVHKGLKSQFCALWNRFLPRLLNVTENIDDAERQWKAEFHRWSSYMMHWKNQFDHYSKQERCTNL

The target of test [1] is T1, electric eel AChE (Electrophorus electricus, UniProt O42275). Description: microchannel sensor AChE inhibition by vapor, amperometric thiocholine oxidation current. The conditions noted are these: for AChE microsensor response to simulants and interferants: vapor exposure, response means AChE inhibition.
Test [2] concerns the target T1, electric eel AChE. Briefly: beaker-scale (macro-scale) AChE inhibition by malathion, thiocholine oxidation current by cyclic voltammetry.
Setting [3] is: about 52 ppb malathion in argon, 10 mL/min, 1.69 mM acetylthiocholine, pH 7.4, 0.013 U AChE.

Turning to `CCCCCCCCCCCC`, the “AChE microsensor response to simulants and interferants” value (“AChE microsensor response” below) in test [1] is reported as “did not produce a response”.
For the compound `CCOC(=O)CC(SP(=S)(OC)OC)C(=O)OCC` (stereo not shown), in test [1] (setting [3]), the “percent inhibition, AChE in solution (free)” value is “about 0.6%” and the “percent inhibition, immobilized AChE” value was determined as 33%. Also, the “AChE microsensor response” value in test [1] is recorded as “shows a response”. Moreover, the “percent inhibition of thiocholine oxidation” value in test [2] (about 46 μM malathion, potential about 700 mV, 1.25 mM acetylthiocholine over immobilized AChE (18 U/mL), phosphate buffer pH 7.4) is reported as 100%. The “percent inhibition of enzyme” value in test [2] (after exposure to about 23 mM malathion, beaker cell) is on record as 100%.
In the case of `Cc1ccccc1`, the “AChE microsensor response” value in test [1] is “did not produce a response”.
